## Reported properties for industrial, environmental and drug-like chemicals

From the experimental data distributed with OPERA 2.9.

The melting point is given in degrees Celsius. The boiling point refers to atmospheric pressure (760 mmHg), by the definition of the set. The octanol-water partition coefficient is given as log10; larger values mean a more lipophilic compound. Water solubility is log10 of mol/L, nominally at 25 °C; higher is more soluble. Vapor pressures (log10 mmHg) refer to near room temperature, 15 to 30 °C; higher is more volatile. Henry's law constant (air-water partitioning) is log10 of atm·m3/mol, nominally at 25 °C. fu is the fraction unbound in human plasma, from 0 to 1. Intrinsic clearance (human, µL/min per 10^6 hepatocytes): higher is faster turnover, and 0 stands for none detected.

* CC1(C(=O)Nc2ccc(O)c(Cl)c2Cl)CCCCC1 [Fenhexamid]: log solubility -4.18 (log10 mol/L); log VP -8.523 (log10 mmHg); Henry's law constant -10.31 (log10 atm·m3/mol); plasma fu 0.05753
* NC1CC1c1ccc(F)c(F)c1.O=C(O)C(O)c1ccccc1 (stereo not given): mp 178.7 °C; log VP -6.046 (log10 mmHg)
* CC(C)(C)C(O)/C(=Cc1ccc(Cl)cc1Cl)/[n]1c[n]c[n]1 (stereo partly drawn): plasma fu 0.01924; hepatic Clint 2.59 µL/min/10^6 cells
* O=C(O)CCP(=O)(O)c1ccccc1 [3-[Hydroxy(phenyl)phosphoryl]propanoic acid]: boiling point 310 °C; log VP -7.046 (log10 mmHg)
* Cc1[nH]c(=O)n(C(C)(C)C)c(=O)c1Cl [Terbacil]: Henry's law constant -9.892 (log10 atm·m3/mol); hepatic Clint 2.27 µL/min/10^6 cells
* O=P(Oc1ccccc1)(Oc1ccccc1)Oc1ccccc1 [Triphenyl phosphate]: plasma fu 0.002852; hepatic Clint 26.44 µL/min/10^6 cells
* C[C@H](Oc1ccc(Oc2nc3ccc(Cl)cc3o2)cc1)C(=O)N(C)c1ccccc1F [Metamifop]: log solubility -5.81 (log10 mol/L); log VP -5.947 (log10 mmHg); Henry's law constant -6.203 (log10 atm·m3/mol)
* CCP(=O)([O-])CC.[Na+] [Sodium diethylphosphinate]: mp 310 °C; logP -1.88
* CCOP(=S)(OCC)OC(Cl)C(Cl)(Cl)Cl (stereo not given) [Chlorethoxyfos]: plasma fu 0.00322; hepatic Clint 617 µL/min/10^6 cells
* O=C(CC(CP1(=O)Oc2ccccc2-c2ccccc21)C(=O)OCCO)OCCO (stereo not given): log solubility -4.462 (log10 mol/L); log VP -7.251 (log10 mmHg)
* Clc1cc(Cl)c(Cl)c(-c2cc(Cl)cc(Cl)c2Cl)c1 [2,2',3,3',5,5'-Hexachlorobiphenyl]: mp 65 °C; log solubility -6.96 (log10 mol/L); log VP -5.225 (log10 mmHg)
* CC(C)c1ccc(NC(=O)N(C)C)cc1 [Isoproturon]: plasma fu 0.258; hepatic Clint 0 µL/min/10^6 cells
* ClCCCCCCCCCCCl [Decane, 1,10-dichloro-]: logP 4.51; log VP -1.837 (log10 mmHg)
* Fc1ccccc1C1=NCC(=S)N(CC(F)(F)F)c2ccc(Cl)cc21 [Quazepam]: log solubility -5.224 (log10 mol/L); plasma fu 0.05
* COP(=S)(OC)Oc1ccc(S(=O)(=O)N(C)C)cc1 [Famphur]: log solubility -3.51 (log10 mol/L); log VP -5.866 (log10 mmHg); Henry's law constant -7.794 (log10 atm·m3/mol)
* CNC(=O)c1cc(C#N)cc(C)c1NC(=O)c1cc(Cn2nnc(C(F)(F)F)n2)nn1-c1ncccc1Cl [Tetraniliprole]: mp 228.8 °C; logP 2.6; log solubility -5.697 (log10 mol/L); log VP -7.546 (log10 mmHg)
* CCOP(=O)(CN(CCO)CCO)OCC [Diethyl (N,N-bis(2-hydroxyethyl)amino)methanephosphonate]: mp -43 °C; log solubility 0.547 (log10 mol/L)
* CCC1(C(=O)NC(C)c2ccc(Cl)cc2)C(C)C1(Cl)Cl (stereo not given) [Carpropamid]: log solubility -5.27 (log10 mol/L); log VP -7.726 (log10 mmHg); Henry's law constant -8.353 (log10 atm·m3/mol)
* C(=NC1CCCCC1)=NC1CCCCC1 [Dicyclohexylcarbodiimide]: log solubility -5.562 (log10 mol/L); log VP -1.953 (log10 mmHg)
* O=C(O)C(F)(F)C(F)(F)C(F)(F)C(F)(F)C(F)(F)C(F)(F)C(F)(F)C(F)(F)C(F)(F)C(F)(F)F [Perfluoroundecanoic acid]: log solubility -3.787 (log10 mol/L); hepatic Clint 0 µL/min/10^6 cells
* CC(=O)CCC(C)=O [2,5-Hexanedione]: log VP -0.367 (log10 mmHg); plasma fu 0.93
* CCC(=O)c1ccc(C)cc1 [p-Methylpropiophenone]: logP 2.7; log solubility -2.434 (log10 mol/L)
* FC(F)(F)/C=C/Cl [(1E)-1-Chloro-3,3,3-trifluoro-1-propene]: boiling point 19 °C; logP 2.2; log solubility -1.837 (log10 mol/L)
* CC1(C)CCC(=Cc2ccc(Cl)cc2)C1(O)Cn1cncn1 (stereo not given) [Triticonazole]: log solubility -4.595 (log10 mol/L); plasma fu 0.1375; hepatic Clint 6.12 µL/min/10^6 cells
* CN(CC[C@H](N)CC(O)=N[C@H]1C=C[C@H](n2ccc(=N)nc2O)O[C@@H]1C(=O)O)C(=N)N [Blasticidin-S]: logP -4.7; log solubility -4.15 (log10 mol/L)
* Brc1ccc(Oc2ccc(Br)cc2)cc1 [4,4'-Dibromodiphenyl ether]: logP 5.67; log solubility -6.293 (log10 mol/L); log VP -4.128 (log10 mmHg)
* CC(C)(C)CC(C)(C)c1ccc(O)cc1 [4-(1,1,3,3-Tetramethylbutyl)phenol]: logP 4.46; log solubility -4.469 (log10 mol/L); plasma fu 0.01903
* Cc1cc(C(C)(C)c2ccc(O)c(C)c2)ccc1O [3,3'-Dimethylbisphenol A]: logP 4.11; log solubility -4.085 (log10 mol/L)
* CC1(C)C(C=C(Cl)Cl)C1C(=O)OCc1cccc(Oc2ccccc2)c1 (stereo not given) [Permethrin]: log solubility -6.67 (log10 mol/L); hepatic Clint 68.4 µL/min/10^6 cells
* CC(C)(C)C(=O)O[C@H]1CC[C@]2(C)[C@H]3CC[C@]4(C)C(=O)[C@H]5C[C@H]5[C@H]4[C@@H]3[C@@H](O)[C@H]3O[C@]32C1: logP 3.6; log solubility -3.656 (log10 mol/L)
* Cc1ccccc1 [Toluene]: plasma fu 0.3; hepatic Clint 3.499 µL/min/10^6 cells
* FC(F)C(F)(F)F [Pentafluoroethane]: logP 1.48; log solubility -1.453 (log10 mol/L)
* CC(C)CCCCCCCOP(=S)([S-])OCCCCCCCC(C)C.CC(C)CCCCCCCOP(=S)([S-])OCCCCCCCC(C)C.[Zn+2]: mp -75.5 °C; log solubility -7.431 (log10 mol/L); log VP -4.736 (log10 mmHg)
* O=c1oc2ccccc2c(O)c1C(CC(O)c1ccc(-c2ccc(Br)cc2)cc1)c1ccccc1 (stereo not given) [Bromadiolone]: mp 202 °C; log solubility -4.46 (log10 mol/L); log VP -9.796 (log10 mmHg)
* C=C1C[C@@H]2[C@H](CC[C@]3(C)C(=O)CC[C@@H]23)[C@@]2(C)C=CC(=O)C=C12 [Exemestane]: logP 3.7; plasma fu 0.1
* Clc1ccc(-c2ccccc2)cc1Cl [3,4-Dichlorobiphenyl]: mp 50 °C; log VP -2.255 (log10 mmHg)

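OPERA's authors assembled the values from existing databases and did not measure them anew. A listed value is a point estimate from one report or more. Method, purity and exact conditions of the single measurements are not given. Where a salt, mixture or single isomer is drawn, the source does not say that exactly this form was tested. Unmarked limits or estimates from the upstream databases cannot be ruled out.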